We go through eight compounds from article PMC4122355, “Inhibitor of the Tyrosine Phosphatase STEP Reverses Cognitive Deficits in a Mouse Model of Alzheimer's Disease” (PLoS Biology, 2014).

Protein sequences, listed by entry. Tags and fused reporters are not part of them. Residues count along the entry.
UniProt P54830, 173-541: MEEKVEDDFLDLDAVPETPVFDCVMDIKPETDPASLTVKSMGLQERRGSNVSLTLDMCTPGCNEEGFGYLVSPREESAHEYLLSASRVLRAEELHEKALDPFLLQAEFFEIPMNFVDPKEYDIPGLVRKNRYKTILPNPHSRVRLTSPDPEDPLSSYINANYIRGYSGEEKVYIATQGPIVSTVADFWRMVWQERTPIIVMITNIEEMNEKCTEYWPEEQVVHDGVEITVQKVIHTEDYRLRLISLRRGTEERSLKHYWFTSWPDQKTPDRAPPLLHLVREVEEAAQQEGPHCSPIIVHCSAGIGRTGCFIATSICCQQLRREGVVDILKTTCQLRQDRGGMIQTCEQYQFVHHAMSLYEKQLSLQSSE
UniProt P54830, whole entry: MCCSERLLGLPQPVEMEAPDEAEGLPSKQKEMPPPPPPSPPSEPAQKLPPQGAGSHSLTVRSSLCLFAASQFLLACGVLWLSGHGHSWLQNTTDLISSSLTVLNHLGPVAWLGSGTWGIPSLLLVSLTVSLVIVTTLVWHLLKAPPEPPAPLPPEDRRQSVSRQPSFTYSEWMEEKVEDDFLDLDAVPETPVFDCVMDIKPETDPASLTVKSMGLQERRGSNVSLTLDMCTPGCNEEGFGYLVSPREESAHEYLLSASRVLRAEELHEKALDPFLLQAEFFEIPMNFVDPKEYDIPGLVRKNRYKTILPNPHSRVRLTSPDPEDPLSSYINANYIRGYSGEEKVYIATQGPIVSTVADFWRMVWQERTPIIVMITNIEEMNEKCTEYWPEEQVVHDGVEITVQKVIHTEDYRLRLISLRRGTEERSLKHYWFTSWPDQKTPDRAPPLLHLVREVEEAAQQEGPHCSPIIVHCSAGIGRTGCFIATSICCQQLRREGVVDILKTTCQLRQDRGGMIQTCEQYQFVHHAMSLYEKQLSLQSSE

Structures are written as SMILES.

A word on the IC50: it is the concentration at which inhibition is half-maximal. Lower therefore signals higher potency.

Assay [1] deals with T1, STEP (Mus musculus, UniProt P54830). Put plainly: Preliminary studies of STEP inhibition in neuronal cultures and cortical tissue after i.p. injection. Conditions: commercial sample, i.p. injections in WT mice. It counts as in vivo.
Assay [2] addresses T1, STEP. Put plainly: HTS hit dose-response inhibition of STEP (pNPP). The note with it: for IC50: commercial library samples, activity later ascribed to S8 contaminant.
Assay [3] deals with T1, STEP. Nature of the assay: pNPP assay of HPLC fractions of commercial Compound 3. It counts as biochemical. Conditions: fraction 7, 100 nM STEP. How it is done: Figure 1 Compound 3 fractionation and initial characterization. (A) Commercially purchased Compound 3 was dissolved in methanol at 10 mg/mL, and 300 µL portions were injected onto a Zorbax (Agilent) 5 µm 300SB-C18 column (0.94×25 cm, 3 mL/min 75% methanol/25% pH 4.0 0.1 M ammonium acetate). Thirty-five fractions (3 mL each) were collected, evaporated, and reconstituted in 100 µL of DMSO. […] DMSO alone was used as a control. Shown in the insert is a representative chromatogram (UV absorbance detection, 350 nm). Peaks A, B, and C indicate early unretained material, Compound 3, and the unknown compound. (B) Structure of S8, the benzopentathiepin core, and 8-(trifluoromethyl)-1,2,3,4,5-benzopentathiepin-6-amine hydrochloride (known as TC-2153). (C and D) Dose–response curves for S8 and TC-2153. (C) The IC50 for S8 was determined to be 17.2±0.4 nM (mean ± s.e.m., n = 4).

On to `COc1ccc(-c2cc(-c3ccccc3)nc3sc(C(=O)NC4CC4)c(N)c23)cc1`, for which, on STEP [1], the “Inhibition of STEP activity in neuronal cultures and cortical tissue” value is “potent inhibition of STEP activity”. On STEP [2], this compound showed an IC50 of 2.2 µM. In addition, the “Inhibitory activity towards STEP after resynthesis” value at STEP [2] (resynthesized compounds, pNPP assay) is “greatly diminished activity”.

`CCS(=O)(=O)c1ccc(-c2csc(-c3ccccn3)n2)c(Cl)c1Cl`: on STEP [3], the “Inhibitory activity of HPLC-purified major peak against STEP” value was “no inhibitory activity against STEP”. The half-inhibitory concentration (IC50) against STEP [2] was 9.7 µM. Regarding `COc1ccc([S+]([O-])Cc2c(C(=O)c3ccccc3)oc3ccccc23)cc1` (centres unmarked), on STEP [2], the IC50 was found to be 8.7 µM.

On STEP [2], `CCOC(=O)c1cc(-c2ccccc2)sc1NC(=O)c1ccc(Br)cc1` had an IC50 of 4.9 µM.

On STEP [2], `Cc1csc(CCc2ccccc2)n1` came in with an IC50 of 4.1 µM. The same measure, in the same setting: the same measure for `CCCCn1cnc2sc3c(c2c1=N)CCCC3`: 2.9 µM; for `CC(C)N1CCc2c(sc(N)c2C#N)C1`: 0.98 µM; for `c1ccc(CCNc2nnns2)cc1`: 1.4 µM.
